## scFv variants of Ab-14 (light chain) against a SARS-CoV-2 spike peptide

Reference: Li et al. 2023, doi:10.1038/s41467-023-39022-2. File: FLAb, binding data.

All variants were tested on one target, the spike HR2 peptide PDVDLGDISGINAS (SARS-CoV-2).

Each scFv is VH, a (GGGGS)3 linker, VL, as in the parent Ab-14, and differs from it in the CDRs of the light chain only.
VH: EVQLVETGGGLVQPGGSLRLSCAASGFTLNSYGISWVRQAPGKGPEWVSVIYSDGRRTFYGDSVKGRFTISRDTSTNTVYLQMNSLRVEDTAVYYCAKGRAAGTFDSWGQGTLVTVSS
VL: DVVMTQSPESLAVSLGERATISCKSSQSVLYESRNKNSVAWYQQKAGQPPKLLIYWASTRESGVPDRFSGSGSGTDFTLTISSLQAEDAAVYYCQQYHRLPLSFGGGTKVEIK

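Phage display of a naive human antibody library on the peptide gave the parent. This is the validation round: designs drawn from the data on random variants, tested in the same kind of assay. Group labels follow the data file (Ctrl: baseline library sampled from a position-specific scoring matrix, with some repeated check sequences; Rand: our label for a block that the file lists under HC and that is probably the random mutants of the ten best first-round binders; GP: Gaussian process model; HC: hill climbing; Gen: genetic algorithm; Gibbs: Gibbs sampling; a sequence that several methods proposed may carry one label only). AlphaSeq pools MATa yeast showing the antibodies with MATalpha yeast showing the peptide. After mating in shaken culture at 30 °C for 16 h, diploids were selected and their barcode pairs sequenced. Read counts were normalised to the haploid input and turned into Kd by a linear fit to BCL2-family pairs of known affinity, for each replicate. Each pool was mated in six replicate cultures.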

The parent's light chain CDRs are KSSQSVLYESRNKNSVA, WASTRES, QQYHRLPLS; each variant's own CDRs replace them letter for letter. Variants here have at most six changes. Values are apparent Kd, the geometric mean of the replicates that gave a signal; lower means stronger binding. "nd" means that the variant was in the library but no mating with the target was seen in any replicate; the authors take this as a sign of poor binding, and no number exists. Values of this round are not directly comparable with the first-round values of the same sequences.

- KMEQGVLYESRNKNSVA / HASVRES / QQYHRLPLS [GP_HC] -> 1.6 nM (6 of 6 replicates)
- KSSQSVPYESENKNSVA / EASQRES / QQYHRLPLS [GP_HC] -> 2.2 nM (6 of 6 replicates)
- KSSNSVLVESTNKNSVA / EASTRER / QQYHRLPLS [Ctrl] -> 6.6 nM (6 of 6 replicates)
- KSSQSVLYESRNKNSVA / GASHRFS / QQYHRLPLD [Ctrl] -> 280 nM (5 of 6 replicates)
- YSSISYLGESRNKNSVA / EASTRES / QQYHRLPLS [GP_HC] -> 1.5 nM (6 of 6 replicates)
- KLSMSVLYESRNKNSVA / HASTRES / QQYHRLPLS [GP_Gen] -> 610 pM (6 of 6 replicates)
- KFSQSVLYESRNNKSVA / WASTREQ / QQYHRLPFS [Ctrl] -> 31 nM (6 of 6 replicates)
- KLEQGVLYESRNKNSVA / GASVRES / QQYHRLPLS [GP_HC] -> 360 pM (6 of 6 replicates)
- KSLWSVLYESNNKNSVA / GASTRED / QQYHRLPLS [GP_HC] -> 3.0 nM (6 of 6 replicates)
- KSSQSVLYESRNKNSGA / WASTRES / QQYHRLPLK [Ctrl] -> nd (0 of 6 replicates)
- KPSISYLYEPRNKNSVA / EASTRES / QQYHRLPLS [Rand] -> 22 nM (6 of 6 replicates)
- KSSQSHLYESRNKNSVA / WASFRLS / QQYHRLPLS [Ctrl] -> nd (0 of 6 replicates)
- KLSQSVLYESRNKNSVA / NASCRES / QQYHRLPLS [GP_Gen] -> 820 pM (6 of 6 replicates)
- KLQQSWQYESRNKNSVA / NASTRES / QQYHRLPLS [GP_Gen] -> 5.6 nM (6 of 6 replicates)
- KLSQSVLYESRNKNSVA / NGSTRES / QDYHRLPLS [GP_Gen] -> 1.4 nM (6 of 6 replicates)
- KLQQSWLYESRNKNSVA / NASTRFS / QQYHRLPLS [GP_Gen] -> 1.8 nM (6 of 6 replicates)
- KLSQSEPYESRNKNSVA / NASYRMS / QQYHRLPLS [GP_Gibbs] -> 360 pM (6 of 6 replicates)
- KSGQSVLYESRNKNSVA / GASQRES / QQYHRLPLS [GP_HC] -> 1.4 nM (6 of 6 replicates)
- KLSQHVEYESRNKNSVA / NASTRLK / QQYHRLPLS [GP_Gibbs] -> 1.7 nM (6 of 6 replicates)
- KSSQSVLMESRNKNSVA / WASTREE / QQYHRLPLS [Ctrl] -> 9.2 nM (3 of 6 replicates)
- KLSQSMLYESRVKNSVA / NASQRES / QQYHRLPLS [GP_Gen] -> 1.6 nM (6 of 6 replicates)
- KLQQSMLYESRNKNSVA / NASLRES / QQYHRLPLS [GP_Gibbs] -> 1.7 nM (6 of 6 replicates)
- KSSVPVLYESRNKNSVA / WASTRES / QQYHRLPLS [Ctrl] -> 49 nM (5 of 6 replicates)
- KLQGSVLYESRNKNSVA / GASQRED / QQYHRLPLS [GP_Gibbs] -> 390 pM (6 of 6 replicates)
- KSSQSVLMESRNKNSVA / GTSTRES / QQYHRLPLS [Ctrl] -> 4.4 nM (6 of 6 replicates)
- KSSQSVLYESRNKESVA / WASTRES / QQYHRLPLS [Ctrl] -> nd (0 of 6 replicates)
- KSSQSLLYESRNKNSVA / SASTRES / QQYHRLPLS [Ctrl] -> 1.7 nM (3 of 6 replicates)
- KLSMSVDYESRMCNSVA / EASTRES / QQYHRLPLS [GP_Gibbs] -> 5.2 nM (6 of 6 replicates)
- KLSFSVLYESRNKNNVA / GASTRES / QQYHRLPLS [GP_Gen] -> 300 pM (6 of 6 replicates)
- KISQSWLYESRNKNSVA / NASQRLS / QQYHRLPLS [GP_Gen] -> 1.3 nM (6 of 6 replicates)
- KSSQSVLYESQDKNSVA / WASTRES / QQYHRLPLS [Ctrl] -> 48 nM (6 of 6 replicates)
- KFSQSQGYESRNKNSVA / NASTRES / QQYHRLPLS [GP_Gen] -> 1.3 nM (6 of 6 replicates)
- KFSQSVLYESRNKNSVA / NASTREM / QQYHRLPLS [GP_Gen] -> 1.0 nM (6 of 6 replicates)

The closing 3 entries, repeated:

* KSSQSVLYESQDKNSVA / WASTRES / QQYHRLPLS [Ctrl] = 48 nM (6 of 6 replicates)
* KFSQSQGYESRNKNSVA / NASTRES / QQYHRLPLS [GP_Gen] = 1.3 nM (6 of 6 replicates)
* KFSQSVLYESRNKNSVA / NASTREM / QQYHRLPLS [GP_Gen] = 1.0 nM (6 of 6 replicates)

The authors averaged sequences with at least three values out of six and counted those with two or fewer as poor binders. Empty control strains, which show no peptide, gave a signal in 4% of pairings with all light chain designs; the median was 430 nM and 95% of these signals were weaker than 38 nM. No background was subtracted.